Values of other authors in patent publication US6383762B1, “Methods of obtaining compounds that interact with a human serotonin (5-HT2) receptor” (Synaptic Pharmaceutical Corporation, priority 1989, dated 2002).

Amino acid sequences for entries named in this document (tags omitted).
UniProt P14842, whole entry: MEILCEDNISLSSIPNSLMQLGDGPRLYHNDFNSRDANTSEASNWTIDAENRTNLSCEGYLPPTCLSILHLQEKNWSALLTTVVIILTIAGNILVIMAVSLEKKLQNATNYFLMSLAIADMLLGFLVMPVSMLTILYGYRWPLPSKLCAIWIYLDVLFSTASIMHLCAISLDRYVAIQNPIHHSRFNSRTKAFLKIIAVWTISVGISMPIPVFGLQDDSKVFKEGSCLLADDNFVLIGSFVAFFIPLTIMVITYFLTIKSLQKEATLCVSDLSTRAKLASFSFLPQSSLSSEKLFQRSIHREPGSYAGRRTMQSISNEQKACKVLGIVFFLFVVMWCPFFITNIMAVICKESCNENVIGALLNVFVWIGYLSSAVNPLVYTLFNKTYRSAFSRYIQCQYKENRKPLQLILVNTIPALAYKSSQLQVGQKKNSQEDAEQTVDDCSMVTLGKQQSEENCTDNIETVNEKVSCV

Target: T1, 5-HT2 receptor in rat cortical membranes (Rattus norvegicus, UniProt P14842)
T1 construct: rather than in rat cortical membranes; host or cells: rat cortical membranes
Conditions: rat cortex; Hoyer et al. 1986; cited from earlier work

Q: For O=C(CCCN1CCC2(CC1)C(=O)NCN2c1ccccc1)c1ccc(F)cc1 [SPIPERONE], which Ki is on record?
A: The Ki was 1.5 nM.
